Consider seven substances from the supplement of paper PMC5998384.

Data set [1] deals with HeLa Kyoto. Nature of the data set: solubility in G1/S (NP-40 vs SDS abundance) (log2 ratio); higher = more soluble. The conditions noted are these: cell cycle stage: G1/S.
Data set [2] deals with HeLa Kyoto. Put plainly: melting temperature (median over replicates), in situ; higher = more thermally stable.
Data set [3] concerns HeLa Kyoto. Put plainly: thermal stability score vs G1/S (z-score of summed log2 fold changes over temperatures); higher = more thermally stable than in G1/S.
Data set [4] concerns HeLa Kyoto. Nature of the data set: solubility change mitosis vs G1/S (difference of NP-40 vs SDS log2 ratios) (log2 ratio difference); higher = more soluble in mitosis.
Setting [5] is: cell cycle stage: early G1 (4.5 h after nocodazole release).
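For melting temperature (median over replicates), in situ in this document: HeLa Kyoto cells synchronized by double thymidine or nocodazole block, proteins quantified by TMT10plex mass spectrometry, three independent biological replicates.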
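For solubility change mitosis vs G1/S (difference of NP-40 vs SDS log2 ratios) in this document: synchronized HeLa Kyoto cells (double thymidine block for G1/S, nocodazole release for mitosis), protein amounts in NP-40 versus SDS lysates quantified by mass spectrometry, three biological replicates.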
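For solubility in G1/S (NP-40 vs SDS abundance) in this document: HeLa Kyoto cells arrested at G1/S by double thymidine block, proteins quantified by TMT10plex mass spectrometry in mild NP-40 versus SDS extracts, three biological replicates.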
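For thermal stability score vs G1/S (z-score of summed log2 fold changes over temperatures) in this document: synchronized HeLa Kyoto cells, proteins quantified by TMT10plex mass spectrometry, three biological replicates, mitosis taken 0.5 h after nocodazole release, G1/S directly after double thymidine block.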

In the case of “MSRSRQPPLVTGISPNEGIPWTKVTIRGENLGTGPTDLIGLTICGHNCLLTAEWMSASKIVCRVGQAKNDKGDIIVTTKSGGRGTSTVSFKLLKPEKIGILDQSAVWVDEMNYYDMRTDRNKGIPPLSLRPANPLGIEIEKSKFSQKDLEMLFHGMSADFTSENFSAAWYLIENHSNTSFEQLKMAVTNLKRQANKKSEGSLAYVKGGLSTFFEAQDALSAIHQKLEADGTEKVEGSMTQKLENVLNRASNTADTLFQEVLGRKDKADSTRNALNVLQRFKFLFNLPLNIERNIQKGDYDVVINDYEKAKSLFGKTEVQVFKKYYAEVETRIEALRELLLDKLLETPSTLHDQKRYIRYLSDLHASGDPAWQCIGAQHKWILQLMHSCKEGYVKDLKGNPGLHSPMLDLDNDTRPSVLGHLSQTASLKRGSSFQSGRDDTWRYKTPHRVAFVEKLTKLVLSQLPNFWKLWISYVNGSLFSETAEKSGQIERSKNVRQRQNDFKKMIQEVMHSLVKLTRGALLPLSIRDGEAKQYGGWEVKCELSGQWLAHAIQTVRLTHESLTALEIPNDLLQTIQDLILDLRVRCVMATLQHTAEEIKRLAEKEDWIVDNEGLTSLPCQFEQCIVCSLQSLKGVLECKPGEASVFQQPKTQEEVCQLSINIMQVFIYCLEQLSTKPDADIDTTHLSVDVSSPDLFGSIHEDFSLTSEQRLLIVLSNCCYLERHTFLNIAEHFEKHNFQGIEKITQVSMASLKELDQRLFENYIELKADPIVGSLEPGIYAGYFDWKDCLPPTGVRNYLKEALVNIIAVHAEVFTISKELVPRVLSKVIEAVSEELSRLMQCVSSFSKNGALQARLEICALRDTVAVYLTPESKSSFKQALEALPQLSSGADKKLLEELLNKFKSSMHLQLTCFQAASSTMMKT [EXOC2]”, the “solubility in G1/S (log2)” value with HeLa Kyoto [1] is -0.00661. The melting temperature in the data set with HeLa Kyoto [2] (cell cycle stage: G1/S) was determined as 49.7 °C; with HeLa Kyoto [2] (cell cycle stage: mitosis), 49.2 °C. Moreover, the thermal stability score was 0.241 in the data set on HeLa Kyoto [3] (setting [5]) and 0.641 with HeLa Kyoto [3] (cell cycle stage: mitosis). Further, in the data set with HeLa Kyoto [4], the “solubility change mitosis (log2)” value was -0.156.

Take “MSSGLRAADFPRWKRHISEQLRRRDRLQRQAFEEIILQYNKLLEKSDLHSVLAQKLQAEKHDVPNRHEISPGHDGTWNDNQLQEMAQLRIKHQEELTELHKKRGELAQLVIDLNNQMQRKDREMQMNEAKIAECLQTISDLETECLDLRTKLCDLERANQTLKDEYDALQITFTALEGKLRKTTEENQELVTRWMAEKAQEANRLNAENEKDSRRRQARLQKELAEAAKEPLPVEQDDDIEVIVDETSDHTEETSPVRAISRAATKRLSQPAGGLLDSITNIFGRRSVSSFPVPQDNVDTHPGSGKEVRVPATALCVFDAHDGEVNAVQFSPGSRLLATGGMDRRVKLWEVFGEKCEFKGSLSGSNAGITSIEFDSAGSYLLAASNDFASRIWTVDDYRLRHTLTGHSGKVLSAKFLLDNARIVSGSHDRTLKLWDLRSKVCIKTVFAGSSCNDIVCTEQCVMSGHFDKKIRFWDIRSESIVREMELLGKITALDLNPERTELLSCSRDDLLKVIDLRTNAIKQTFSAPGFKCGSDWTRVVFSPDGSYVAAGSAEGSLYIWSVLTGKVEKVLSKQHSSSINAVAWSPSGSHVVSVDKGCKAVLWAQY [ATG16L1]”: in the data set on HeLa Kyoto [1], the “solubility in G1/S (log2)” value was -0.171. Besides, the melting temperature with HeLa Kyoto [2] (cell cycle stage: G1/S) and with HeLa Kyoto [2] (cell cycle stage: mitosis) was 54.2 °C throughout. The thermal stability score with HeLa Kyoto [3] (setting [5]) was -0.0564; in the data set with HeLa Kyoto [3] (cell cycle stage: mitosis) it was -1.24. The “solubility change mitosis (log2)” value with HeLa Kyoto [4] is -0.0563.

On to “MSVAGLKKQFYKASQLVSEKVGGAEGTKLDDDFKEMEKKVDVTSKAVTEVLARTIEYLQPNPASRAKLTMLNTVSKIRGQVKNPGYPQSEGLLGECMIRHGKELGGESNFGDALLDAGESMKRLAEVKDSLDIEVKQNFIDPLQNLCEKDLKEIQHHLKKLEGRRLDFDYKKKRQGKIPDEELRQALEKFEESKEVAETSMHNLLETDIEQVSQLSALVDAQLDYHRQAVQILDELAEKLKRRMREASSRPKREYKPKPREPFDLGEPEQSNGGFPCTTAPKIAASSSFRSSDKPIRTPSRSMPPLDQPSCKALYDFEPENDGELGFHEGDVITLTNQIDENWYEGMLDGQSGFFPLSYVEVLVPLPQ [SH3GL1]”, for which the “solubility in G1/S (log2)” value with HeLa Kyoto [1] stood at 0.788. Besides, the melting temperature in the data set on HeLa Kyoto [2] (cell cycle stage: G1/S) is 49.2 °C; in the data set with HeLa Kyoto [2] (cell cycle stage: mitosis) it was 49.7 °C. Further, the thermal stability score was -0.823 in the data set with HeLa Kyoto [3] (setting [5]) and 0.873 with HeLa Kyoto [3] (cell cycle stage: mitosis). Besides, in the data set with HeLa Kyoto [4], the “solubility change mitosis (log2)” value was 0.0805.

On to “MVDMMDLPRSRINAGMLAQFIDKPVCFVGRLEKIHPTGKMFILSDGEGKNGTIELMEPLDEEISGIVEVVGRVTAKATILCTSYVQFKEDSHPFDLGLYNEAVKIIHDFPQFYPLGIVQHD [RPA3]”, for which, in the data set with HeLa Kyoto [1], the “solubility in G1/S (log2)” value was determined as 0.244. The melting temperature in the data set with HeLa Kyoto [2] (cell cycle stage: G1/S) turned out to be 52.7 °C; with HeLa Kyoto [2] (cell cycle stage: mitosis), 51.8 °C. The thermal stability score is -0.641 in the data set on HeLa Kyoto [3] (setting [5]) and -0.0893 with HeLa Kyoto [3] (cell cycle stage: mitosis). In addition, the “solubility change mitosis (log2)” value in the data set with HeLa Kyoto [4] turned out to be 0.0766.

Turning to “MVHAEAFSRPLSRNEVVGLIFRLTIFGAVTYFTIKWMVDAIDPTRKQKVEAQKQAEKLMKQIGVKNVKLSEYEMSIAAHLVDPLNMHVTWSDIAGLDDVITDLKDTVILPIKKKHLFENSRLLQPPKGVLLYGPPGCGKTLIAKATAKEAGCRFINLQPSTLTDKWYGESQKLAAAVFSLAIKLQPSIIFIDEIDSFLRNRSSSDHEATAMMKAQFMSLWDGLDTDHSCQVIVMGATNRPQDLDSAIMRRMPTRFHINQPALKQREAILKLILKNENVDRHVDLLEVAQETDGFSGSDLKEMCRDAALLCVREYVNSTSEESHDEDEIRPVQQQDLHRAIEKMKKSKDAAFQNVLTHVCLD [ATAD1]”, the “solubility in G1/S (log2)” value with HeLa Kyoto [1] is 0.251. The figures for the melting temperature in the data set on HeLa Kyoto [2] (cell cycle stage: G1/S) and with HeLa Kyoto [2] (cell cycle stage: mitosis) were 50.5 °C and 49.7 °C, respectively. The thermal stability score was determined as 1.73 in the data set on HeLa Kyoto [3] (setting [5]) and 1.74 with HeLa Kyoto [3] (cell cycle stage: mitosis). In addition, in the data set on HeLa Kyoto [4], the “solubility change mitosis (log2)” value is -0.0787.

Turning to “MVSKRRLSKSEDKESLTEDASKTRKQPLSKKTKKSHIANEVEENDSIFVKLLKISGIILKTGESQNQLAVDQIAFQKKLFQTLRRHPSYPKIIEEFVSGLESYIEDEDSFRNCLLSCERLQDEEASMGASYSKSLIKLLLGIDILQPAIIKTLFEKLPEYFFENKNSDEINIPRLIVSQLKWLDRVVDGKDLTTKIMQLISIAPENLQHDIITSLPEILGDSQHADVGKELSDLLIENTSLTVPILDVLSSLRLDPNFLLKVRQLVMDKLSSIRLEDLPVIIKFILHSVTAMDTLEVISELREKLDLQHCVLPSRLQASQVKLKSKGRASSSGNQESSGQSCIILLFDVIKSAIRYEKTISEAWIKAIENTASVSEHKVFDLVMLFIIYSTNTQTKKYIDRVLRNKIRSGCIQEQLLQSTFSVHYLVLKDMCSSILSLAQSLLHSLDQSIISFGSLLYKYAFKFFDTYCQQEVVGALVTHICSGNEAEVDTALDVLLELVVLNPSAMMMNAVFVKGILDYLDNISPQQIRKLFYVLSTLAFSKQNEASSHIQDDMHLVIRKQLSSTVFKYKLIGIIGAVTMAGIMAADRSESPSLTQERANLSDEQCTQVTSLLQLVHSCSEQSPQASALYYDEFANLIQHEKLDPKALEWVGHTICNDFQDAFVVDSCVVPEGDFPFPVKALYGLEEYDTQDGIAINLLPLLFSQDFAKDGGPVTSQESGQKLVSPLCLAPYFRLLRLCVERQHNGNLEEIDGLLDCPIFLTDLEPGEKLESMSAKERSFMCSLIFLTLNWFREIVNAFCQETSPEMKGKVLTRLKHIVELQIILEKYLAVTPDYVPPLGNFDVETLDITPHTVTAISAKIRKKGKIERKQKTDGSKTSSSDTLSEEKNSECDPTPSHRGQLNKEFTGKEEKTSLLLHNSHAFFRELDIEVFSILHCGLVTKFILDTEMHTEATEVVQLGPPELLFLLEDLSQKLESMLTPPIARRVPFLKNKGSRNIGFSHLQQRSAQEIVHCVFQLLTPMCNHLENIHNYFQCLAAENHGVVDGPGVKVQEYHIMSSCYQRLLQIFHGLFAWSGFSQPENQNLLYSALHVLSSRLKQGEHSQPLEELLSQSVHYLQNFHQSIPSFQCALYLIRLLMVILEKSTASAQNKEKIASLARQFLCRVWPSGDKEKSNISNDQLHALLCIYLEHTESILKAIEEIAGVGVPELINSPKDASSSTFPTLTRHTFVVFFRVMMAELEKTVKKIEPGTAADSQQIHEEKLLYWNMAVRDFSILINLIKVFDSHPVLHVCLKYGRLFVEAFLKQCMPLLDFSFRKHREDVLSLLETFQLDTRLLHHLCGHSKIHQDTRLTQHVPLLKKTLELLVCRVKAMLTLNNCREAFWLGNLKNRDLQGEEIKSQNSQESTADESEDDMSSQASKSKATEDGEEDEVSAGEKEQDSDESYDDSD [FANCD2]”, the “solubility in G1/S (log2)” value in the data set with HeLa Kyoto [1] is -0.228. Besides, the melting temperature with HeLa Kyoto [2] (cell cycle stage: G1/S) is 49.7 °C; in the data set with HeLa Kyoto [2] (cell cycle stage: mitosis), 49.5 °C. Further, the thermal stability score is -3.56 with HeLa Kyoto [3] (setting [5]) and -0.802 with HeLa Kyoto [3] (cell cycle stage: mitosis). The “solubility change mitosis (log2)” value in the data set with HeLa Kyoto [4] was -0.122.

In the case of TLN1, in the data set on HeLa Kyoto [1], the “solubility in G1/S (log2)” value is -0.0178. For the same substance, the melting temperature in the data set on HeLa Kyoto [2] (cell cycle stage: G1/S) came to 49.7 °C; in the data set with HeLa Kyoto [2] (cell cycle stage: mitosis), 49.8 °C. The thermal stability score in the data set on HeLa Kyoto [3] (setting [5]) is 0.927; in the data set with HeLa Kyoto [3] (cell cycle stage: mitosis), 2.82. Moreover, the “solubility change mitosis (log2)” value in the data set with HeLa Kyoto [4] was -0.0708.
